A word on the IC50: it is the concentration needed to halve the response being measured. Low readings indicate greater potency in that assay, high ones weaker potency in that assay.

By UniProt entry, the sequences of proteins in these tests, tags left out.
UniProt Q16539, whole entry: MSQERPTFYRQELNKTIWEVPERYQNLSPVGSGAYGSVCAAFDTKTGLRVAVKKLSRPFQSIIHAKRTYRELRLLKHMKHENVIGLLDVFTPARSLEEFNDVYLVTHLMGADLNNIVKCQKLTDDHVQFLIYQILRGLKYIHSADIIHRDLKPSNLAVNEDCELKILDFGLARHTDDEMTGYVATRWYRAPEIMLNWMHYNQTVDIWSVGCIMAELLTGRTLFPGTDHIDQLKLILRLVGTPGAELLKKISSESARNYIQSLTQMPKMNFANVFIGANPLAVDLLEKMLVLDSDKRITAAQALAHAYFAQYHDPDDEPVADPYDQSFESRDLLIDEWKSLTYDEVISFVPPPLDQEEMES

This experiment concerns the target p38 MAPKα isoform (MAPK14) (Homo sapiens (Human), UniProt Q16539). Put plainly: p38 MAPKα enzyme inhibition (FRET, Z-LYTE), Method 1. The following applies: Method 1 (Table 4a1). It counts as biochemical. The procedure: The enzyme inhibitory activities of compounds disclosed herein are determined by FRET using synthetic peptides labelled with both donor and acceptor fluorophores (Z-LYTE, Invitrogen Ltd., Paisley, UK).
The inhibitory activities of test compounds against the p38 MAPKα isoform (MAPK14: Invitrogen), are evaluated indirectly by determining the level of activation/phosphorylation of the down-stream molecule, MAPKAP-K2. The p38 MAPKα protein (80 ng/mL, 2.5 μL) is mixed with the test compound (2.5 μL of either 4 μg/mL, 0.4 μg/mL, 0.04 μg/mL or 0.004 μg/mL) for 2 hr at RT. […] The mixture is incubated for 1 hr at RT. Development reagent (protease, 5 μL) is added for 1 hr prior to detection in a fluorescence microplate reader (Varioskan® Flash, ThermoFisher Scientific).
In all cases, the site-specific protease cleaves non-phosphorylated peptide only and eliminates the FRET signal. Phosphorylation levels of each reaction are calculated using the ratio of coumarin emission (donor) over fluorescein emission (acceptor), for which high ratios indicate high phosphorylation and low ratios indicate low phosphorylation levels.

Molecules are shown by their SMILES.

Compound `Cc1ccc(-n2nc(C(C)C)cc2NC(=O)Nc2ccc(Oc3ccnc(Nc4cccc(C(=O)NCCN5CCOCC5)c4)n3)c3ccccc23)cc1` [Example 19, 3-((4-((4-(3-(3-isopropyl-1-(p-tolyl)-1H-pyrazol-5-yl)ureido)naphthalen-1-yl)oxy)pyrimidin-2-yl)amino)-N-(2-morpholinoethyl)benzamide] came in with an IC50 of 2 nM. This counts as single-digit nanomolar.
